These results are taken from ChEMBL document CHEMBL2163237, “Molecular determinants of selectivity and efficacy at the dopamine D3 receptor” (J Med Chem, 2012).

Amino acid sequences for entries named in this document (tags omitted).
UniProt P14416, whole entry: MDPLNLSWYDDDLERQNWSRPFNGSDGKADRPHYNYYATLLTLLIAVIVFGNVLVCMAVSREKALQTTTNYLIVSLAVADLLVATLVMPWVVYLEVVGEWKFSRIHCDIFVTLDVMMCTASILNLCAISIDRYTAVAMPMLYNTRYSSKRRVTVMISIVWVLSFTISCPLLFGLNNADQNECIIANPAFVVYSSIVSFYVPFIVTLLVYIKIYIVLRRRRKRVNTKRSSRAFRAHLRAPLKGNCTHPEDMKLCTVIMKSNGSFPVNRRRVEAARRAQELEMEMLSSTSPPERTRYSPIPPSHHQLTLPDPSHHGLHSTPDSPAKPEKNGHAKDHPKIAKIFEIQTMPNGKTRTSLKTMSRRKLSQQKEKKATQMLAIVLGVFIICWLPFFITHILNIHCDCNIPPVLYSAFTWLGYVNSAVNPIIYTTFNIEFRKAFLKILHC

This assay has as its target D(2) dopamine receptor (Homo sapiens, UniProt P14416). Put plainly: Displacement of [125I]IABN from human D2L receptor expressed in HEK293 cells after 60 mins by gamma counting analysis. The class given is cell-based.

In general, Ki refers to a measure of affinity in units of concentration, obtained from inhibition or displacement. High values mean lower affinity, low ones higher affinity. In the case of `CCCCNC(=O)c1cc2ccccc2[nH]1`, the inhibitory constant (Ki) was 13.6 µM.
